Laboratory results: patent publication US20240261425A1, “CONJUGATE AND THE PREPARING METHOD AND USE THEREOF” (Nanjing University, priority 2021, published 2024)

Test system: HER2+ cells MDA-MB-435
Assay: Tumor cell killing test, HER2+ MDA-MB-435
Type: cell-based
Excerpt: Cell viability was plotted as a percentage of untreated cells. Each measurement was taken in triplicate.

Row | Substance | IC50 [µg/mL]
1 | Herceptin-Mal-MMAE [reference compound] | 0.01203
2 | Herceptin-PhESF-PEG4-MMAE | 0.01466
